The values that follow are results of earlier work, collected in paper PMC4567495.

As a reminder, the Kd is the free concentration of one partner at which half of the binding sites on the other are occupied at equilibrium, for simple one-to-one binding.

This series addresses cardiac troponin I 38-57 (Homo sapiens) (UniProt P19429). Put plainly: SPR and ELISA. On the technique in general: In an ELISA, binding on a coated surface is turned into a signal by an enzyme label.

Turning to “cardiac troponin C (from UniProt P63316)”, the Kd was 3 nM.
